# Test results reported in patent US20060009433A1, “Neuroprotective spirostenol pharmaceutical compositions” (priority 2003, published 2006).
# Tested on: rat PC12 neuronal cells
# Conditions: MTT; 100 μM steroid
smiles,measurement,value
"C[C@]12CC[C@H](O)CC1=CC[C@@H]1[C@@H]2CC[C@]2(C)C(=O)CC[C@@H]12 [DHEA, 5-androsten-3β-ol-17-one]",protection against 5 μM Aβ-induced cytotoxicity,protected
same,protection against 50 μM Aβ-induced cytotoxicity,but not 50 μM
